IC50 and Kd data for four molecules are collected here from patent US11389438B2 (CHDI Foundation, Inc., priority 2019, dated 2022).

Protein sequences, listed by entry. Tags and fused reporters are not part of them. Chains listed by the source or under a name are the forms on record and can include a tag or linker.
UniProt P42858, with tags, fused parts or gaps with the stated changes: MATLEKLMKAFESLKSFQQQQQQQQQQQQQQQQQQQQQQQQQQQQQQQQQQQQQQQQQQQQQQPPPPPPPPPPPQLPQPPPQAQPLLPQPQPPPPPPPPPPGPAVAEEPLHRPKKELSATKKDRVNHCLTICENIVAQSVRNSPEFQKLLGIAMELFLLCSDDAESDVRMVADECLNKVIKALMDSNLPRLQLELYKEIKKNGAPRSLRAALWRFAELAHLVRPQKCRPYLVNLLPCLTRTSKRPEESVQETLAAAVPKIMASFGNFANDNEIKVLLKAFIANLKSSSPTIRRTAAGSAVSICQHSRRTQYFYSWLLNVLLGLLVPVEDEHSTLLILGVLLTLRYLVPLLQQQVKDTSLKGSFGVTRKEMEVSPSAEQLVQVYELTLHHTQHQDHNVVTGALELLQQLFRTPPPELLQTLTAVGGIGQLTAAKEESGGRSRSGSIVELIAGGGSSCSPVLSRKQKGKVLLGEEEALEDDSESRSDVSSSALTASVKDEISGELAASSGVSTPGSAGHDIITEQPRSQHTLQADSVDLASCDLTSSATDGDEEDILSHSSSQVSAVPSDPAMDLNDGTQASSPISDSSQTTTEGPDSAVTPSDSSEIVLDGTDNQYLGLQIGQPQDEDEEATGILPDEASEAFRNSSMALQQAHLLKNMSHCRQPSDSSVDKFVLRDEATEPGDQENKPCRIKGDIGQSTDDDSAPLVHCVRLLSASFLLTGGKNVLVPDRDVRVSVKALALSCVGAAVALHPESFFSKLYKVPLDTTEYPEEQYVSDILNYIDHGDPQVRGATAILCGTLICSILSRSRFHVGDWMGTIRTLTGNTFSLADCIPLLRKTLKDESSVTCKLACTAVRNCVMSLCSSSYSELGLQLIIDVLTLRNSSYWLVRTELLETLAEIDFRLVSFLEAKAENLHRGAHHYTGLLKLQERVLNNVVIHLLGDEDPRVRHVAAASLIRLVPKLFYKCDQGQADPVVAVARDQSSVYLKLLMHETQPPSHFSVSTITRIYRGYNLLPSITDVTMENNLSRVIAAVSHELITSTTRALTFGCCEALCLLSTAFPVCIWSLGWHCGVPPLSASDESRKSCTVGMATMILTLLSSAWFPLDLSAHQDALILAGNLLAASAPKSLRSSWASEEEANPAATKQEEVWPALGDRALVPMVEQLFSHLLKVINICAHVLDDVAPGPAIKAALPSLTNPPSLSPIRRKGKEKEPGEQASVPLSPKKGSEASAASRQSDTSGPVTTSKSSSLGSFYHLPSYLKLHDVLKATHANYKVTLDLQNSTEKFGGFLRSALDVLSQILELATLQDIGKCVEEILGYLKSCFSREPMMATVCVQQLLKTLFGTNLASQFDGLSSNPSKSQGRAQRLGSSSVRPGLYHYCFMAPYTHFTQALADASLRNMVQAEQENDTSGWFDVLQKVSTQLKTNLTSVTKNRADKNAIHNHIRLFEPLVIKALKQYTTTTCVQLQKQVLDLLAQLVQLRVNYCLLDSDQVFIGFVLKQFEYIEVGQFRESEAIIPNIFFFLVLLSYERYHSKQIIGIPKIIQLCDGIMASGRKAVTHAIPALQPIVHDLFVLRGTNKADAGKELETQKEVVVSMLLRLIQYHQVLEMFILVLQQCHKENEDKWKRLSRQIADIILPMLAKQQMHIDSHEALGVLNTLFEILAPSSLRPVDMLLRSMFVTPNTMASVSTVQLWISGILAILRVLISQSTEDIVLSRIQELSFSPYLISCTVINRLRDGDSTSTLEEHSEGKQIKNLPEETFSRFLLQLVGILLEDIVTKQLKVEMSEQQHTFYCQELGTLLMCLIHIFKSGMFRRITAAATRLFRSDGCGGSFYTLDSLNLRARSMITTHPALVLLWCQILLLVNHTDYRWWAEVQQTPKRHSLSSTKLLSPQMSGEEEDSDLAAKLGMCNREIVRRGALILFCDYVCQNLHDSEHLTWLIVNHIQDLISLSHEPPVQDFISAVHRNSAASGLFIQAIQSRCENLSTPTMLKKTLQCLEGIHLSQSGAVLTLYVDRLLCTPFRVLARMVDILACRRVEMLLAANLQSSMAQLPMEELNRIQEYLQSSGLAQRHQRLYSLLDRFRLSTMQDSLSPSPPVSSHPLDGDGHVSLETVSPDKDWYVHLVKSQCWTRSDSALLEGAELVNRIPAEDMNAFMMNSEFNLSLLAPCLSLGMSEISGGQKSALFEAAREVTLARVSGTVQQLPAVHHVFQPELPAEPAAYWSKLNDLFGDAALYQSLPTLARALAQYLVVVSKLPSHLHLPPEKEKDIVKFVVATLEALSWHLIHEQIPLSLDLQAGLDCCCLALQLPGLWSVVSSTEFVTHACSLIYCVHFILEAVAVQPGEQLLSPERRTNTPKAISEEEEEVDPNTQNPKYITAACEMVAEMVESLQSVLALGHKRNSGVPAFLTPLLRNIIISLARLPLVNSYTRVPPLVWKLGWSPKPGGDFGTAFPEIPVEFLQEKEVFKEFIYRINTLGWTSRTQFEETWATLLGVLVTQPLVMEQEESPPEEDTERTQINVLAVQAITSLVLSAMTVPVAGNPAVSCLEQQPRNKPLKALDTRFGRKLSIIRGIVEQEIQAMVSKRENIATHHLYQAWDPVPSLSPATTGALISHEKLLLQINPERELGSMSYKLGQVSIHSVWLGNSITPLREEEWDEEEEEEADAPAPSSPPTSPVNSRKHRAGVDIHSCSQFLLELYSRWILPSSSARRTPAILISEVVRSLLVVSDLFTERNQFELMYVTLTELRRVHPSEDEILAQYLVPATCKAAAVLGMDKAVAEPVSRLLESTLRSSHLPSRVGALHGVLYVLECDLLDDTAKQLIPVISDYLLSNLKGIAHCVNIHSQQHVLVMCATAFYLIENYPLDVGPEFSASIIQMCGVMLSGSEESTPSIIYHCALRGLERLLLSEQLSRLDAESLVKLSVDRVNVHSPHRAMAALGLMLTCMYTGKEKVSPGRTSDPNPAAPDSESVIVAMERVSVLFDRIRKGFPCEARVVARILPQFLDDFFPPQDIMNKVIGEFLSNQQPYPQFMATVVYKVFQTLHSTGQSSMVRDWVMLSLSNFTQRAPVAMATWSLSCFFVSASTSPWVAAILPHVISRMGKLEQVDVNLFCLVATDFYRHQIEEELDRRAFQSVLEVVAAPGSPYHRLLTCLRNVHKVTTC
UniProt P40337, whole entry: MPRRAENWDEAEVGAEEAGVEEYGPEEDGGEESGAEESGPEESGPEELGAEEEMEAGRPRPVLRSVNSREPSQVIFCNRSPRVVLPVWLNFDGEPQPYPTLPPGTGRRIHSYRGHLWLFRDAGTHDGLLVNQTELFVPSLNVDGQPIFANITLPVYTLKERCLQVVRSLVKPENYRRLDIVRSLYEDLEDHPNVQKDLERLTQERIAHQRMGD

Assay [1] deals with pre-formed polyQ46 or Exon1-polyQ46 aggregates (mHTT) (Homo sapiens, UniProt P42858, INS38QQQQQQQQQQQQQQQQQQQQQQQQQ). Nature of the assay: Q46_RBA radioligand binding assay (displacement of [3H]-radioligand). The conditions noted are these: read-out: Q46_RBA IC50; class symbols. As for the experimental part: Binding of W to mHTT. A radioligand binding assay was developed to screen for compounds which can efficiently displace a radioligand detailed elsewhere (see, e.g., U.S. Patent Publication No. from US 2017/0292150) pre-formed polyQ46 or Exon1-polyQ46 aggregates (Q46_RBA).
Aggregation of polyQ peptides is initiated by cleavage of the tag from a GST-polyQ46 or from a MBP-Exon1-polyQ46 fusion protein. The pre-formed aggregates are then incubated with compounds which compete with the [^3H]-radiolabelled ligand for binding to the aggregates. The readout is a scintillation based MicroBeta measurement of radioligand bound to aggregates. The activity was indicated as: +++, <100 nM; ++, 100-500 nM, +, >500 nM.

For assay [2], the target named is VHL complex (VHL, Elongin B, Elongin C, Cul2, Rbx1) (Homo sapiens (Human), UniProt P40337). In words: VHL SPR assay. In kind it is binding. The conditions noted are these: read-out: VHL SPR Kd; immobilized VHL complex. The text has this: Surface Plasmon Resonance (SPR) assays have been developed to test the affinity (KD) of VHL or CRBN-based compounds to respective recombinant ligase complex/domain.
The assays are based on surface plasmon resonance (SPR), which enables to measure the changes of the local refractive index due to changes of molecular mass on a gold chip surface in the case of a binding event and in a flowing system. To detect binding between both partners, the respective E3 ligase is immobilized to the chip surface, while the test compounds are flown over the chip surface at a steady velocity. The detected changes in the RU response are indicative of the binding event and are concentration dependent.
These tags provide the anchor for the capturing process to either an NTA or Streptavidin coated chip surface (immobilization level of 3,000-5,000 RU). Because of the rather complex structure of the VHL complex, it was additionally coupled to the chip surface by amino coupling to prevent any protein loss by disruption of the complex in the flowing system.
To detect binding of compounds and extract dissociation constants KD for the tested compounds to the immobilized E3 ligase, concentration response curves of the compounds were recorded. Compounds were usually tested in 10-pt dilutions up to 20 μM final concentration in assay buffer and were flown over the chip at 30 μL/min. […]
Background: SPR reads the build-up and loss of mass on a sensor chip optically.

By pIC50 is commonly meant the IC50 on a negative log10 scale, so that one unit is a factor of ten. The pKd is −log10 of the Kd, conventionally taken in molar units.

pIC50, pKd: −log10 of the molar value. Where only a bound is given, the exact number is not on record here.

Regarding `CC(C)C[C@H](NC(=O)[C@@H](O)[C@H](N)Cc1ccccc1)C(=O)NCCOCCOCCOCCOCCOCCOCCOCCOCCOCCOCCOCCOCCOCCOCCOCCOc1ccc(C(=O)Nc2ccc3oc(-c4ccc(=O)n(C)n4)nc3c2)nc1`, the pIC50 in assay [1] is 6.30 to 7.00.
Regarding `CC(C)C[C@H](NC(=O)[C@@H](O)[C@H](N)Cc1ccccc1)C(=O)NCCOCCOCCOCCOCCOCCOCCOCCOCCOCCOCCOCCOc1ccc(C(=O)Nc2ccc3oc(-c4ccc(=O)n(C)n4)nc3c2)nc1`, in assay [1], the pIC50 was > 7.00.
As for `Cc1ncsc1-c1ccc(CNC(=O)[C@@H]2C[C@@H](O)CN2C(=O)[C@@H](NC(=O)CCOCCOCCOCCOCCOCCOCCOCCOCCOCCOCCOCCOCCOc2ccc(C(=O)Nc3ccc4oc(-c5ccc(=O)n(C)n5)nc4c3)nc2)C(C)(C)C)cc1` [26], the pKd in assay [2] was > 7.00. For the same molecule, in assay [1], the pIC50 was 6.30 to 7.00.
For `Cc1ncsc1-c1ccc(CNC(=O)[C@@H]2C[C@@H](O)CN2C(=O)[C@@H](NC(=O)CCOCCOCCOCCOCCOCCOCCOCCOCCOCCOCCOCCOCCOc2ccc(C(=O)Nc3ccc4oc(-c5ccc(=O)n(C)n5)nc4c3)nc2)C(C)(C)C)cc1` [28], the pIC50 in assay [1] is > 7.00.
